Tested on: CASK, calcium/calmodulin-dependent serine protein kinase (Homo sapiens)
Conditions: 10 uM

- inhibition: > 90%
Compound: COc1ccc(-c2cnccc2-c2cnc(NC(=O)C(C)C)s2)c(C(F)(F)F)c1
